{
  "source": "patent US7727950",
  "key": {"[1]": {"test_system": "generic peptide substrate RRRLSFAEPG"}, "[2]": {"test_system": "standard peptide substrate LRRASLG"}},
  "data": [
    {"substance": "catalytic subunit of cyclic AMP-dependent protein kinase (PKA)", "values": [
      {"measurement": "Km", "setting": "[1]", "result": 30, "unit": "µM"},
      {"measurement": "Km", "setting": "[2]", "result": 18, "unit": "µM"}
    ]}
  ]
}
